Reference: paper PMC9841533, “Microtubule-Stabilizing 1,2,4-Triazolo[1,5-a]pyrimidines as Candidate Therapeutics for Neurodegenerative Disease: Matched Molecular Pair Analyses and Computational Studies Reveal New Structure–Activity Insights” (Journal of Medicinal Chemistry, 2022)
Where a name gives a salt, the structure may show the parent alone. Read-outs that look alike come from different tables or passages of the source.

Columns and labels:
[1] = system: acetylated α-tubulin (AcTub) levels in QBI293 cells; experiment: QBI293 cell assay of MT stabilization: acetylated α-tubulin ELISA; format: cell-based; settings: for AcTub (1 uM - normalized): 1 uM compound
[2] = system: total α-tubulin (α-Tub) levels in QBI293 cells; experiment: QBI293 cell assay: total α-tubulin ELISA; format: cell-based; settings: for fold induction at 1 µM: read-out: α-Tub 1 μM, fold-change compared to vehicle (DMSO)-treated cells
[3] = QBI293 cells, 4 h incubation, 10 μM, read-out: α-Tub 10 μM, fold-change compared to vehicle (DMSO)-treated cells
[4] = 4 h, 10 uM compound, read-out: AcTub (10 uM)

For `CC(C)[C@@H](Nc1c(-c2c(F)cc(OCCCN(C)C)cc2F)c(Cl)nc2ncnn12)C(F)(F)F` [Compound 22, (R)-3-(4-(5-Chloro-7-((1,1,1-trifluoro-3-methylbutan-2-yl)amino)-[1,2,4]triazolo[1,5-a]pyrimidin-6-yl)-3,5-difluorophenoxy)-N,N-dimethylpropan-1-aminium Formate], the “AcTub (1 uM - normalized)” value ([1]; normalized) was 1.04 and the fold induction at 10 µM [2, 3] was 1.13 ± 0.01.
With `CC(C)[C@H](Nc1c(-c2c(F)cc(OCCCN(C)C)cc2F)c(Cl)nc2ncnn12)C(F)(F)F` [Compound 23, (S)-3-(4-(5-Chloro-7-((1,1,1-trifluoro-3-methylbutan-2-yl)amino)-[1,2,4]triazolo[1,5-a]pyrimidin-6-yl)-3,5-difluorophenoxy)-N,N-dimethylpropan-1-aminium Formate] the “AcTub (1 uM - normalized)” value ([1]; normalized) was 1.26, the fold induction at 1 µM ([1]; 4 h incubation, 1 μM, read-out: AcTub 1 μM, fold-change compared to vehicle (DMSO)-treated cells) was 12 ± 0.46 and the fold induction at 10 µM ([1]; 4 h incubation, 10 μM, read-out: AcTub 10 μM, fold-change compared to vehicle (DMSO)-treated cells) was 2.05 ± 0.1. It also gave a fold induction at 10 µM ([2]; 4 h, QBI293 cells, 10 uM compound, read-out: AlfaTub (10 uM)) of 1.13 and a fold induction at 1 µM ([2]; QBI293 cells, 4 h incubation, 1 μM) of 0.87 ± 0.05.
For `C[C@@H](Nc1c(-c2c(F)cc(OCCCN(C)C)cc2F)c(Cl)nc2ncnn12)C1CC1` [Compound 32, (R)-3-(4-(5-Chloro-7-((1-cyclopropylethyl)amino)-[1,2,4]triazolo[1,5-a]pyrimidin-6-yl)-3,5-difluorophenoxy)-N,N-dimethylpropan-1-aminium Formate], the fold induction at 10 µM [1, 4] was 0.56 and the fold induction at 1 µM ([2]; QBI293, 4 h) was 1.04 ± 0.01.
For `C[C@H](Nc1c(-c2c(F)cc(OCCCN(C)C)cc2F)c(Cl)nc2ncnn12)C1CC1` [Compound 31, (S)-3-(4-(5-Chloro-7-((1-cyclopropylethyl)amino)-[1,2,4]triazolo[1,5-a]pyrimidin-6-yl)-3,5-difluorophenoxy)-N,N-dimethylpropan-1-aminium Formate], the “AcTub (10 uM - normalized)” value ([1]; 10 uM compound, normalized) was 0.08 and the fold induction at 10 µM [1, 4] was 0.56.
For `C[C@@H](Nc1c(-c2c(F)cc(OCCCN(C)C)cc2F)c(Cl)nc2ncnn12)C(C)(C)C` [Compound 24, (R)-3-(4-(5-Chloro-7-((3,3-dimethylbutan-2-yl)amino)-[1,2,4]triazolo[1,5-a]pyrimidin-6-yl)-3,5-difluorophenoxy)-N,N-dimethylpropan-1-aminium Formate], the “AcTub 1 μM, fold-change compared to positive control compound 5 (100 nM) (in parentheses)” value ([1]; 4 h incubation, 1 μM) was 1.02 fold-change and the fold induction at 10 µM [2, 3] was 0.97 ± 0.03.
